The source of these data is article PMC11200976, “Pitavastatin Calcium Confers Fungicidal Properties to Fluconazole by Inhibiting Ubiquinone Biosynthesis and Generating Reactive Oxygen Species” (Antioxidants, 2024).

The assay relates to C. albicans. As to the kind of experiment: Broth microdilution assay of synergistic lethality with 4 μg/mL FLC (recovery on drug-free YPD). The note with it: concentration of the compound that is synergistically lethal with 4 μg/mL FLC. In general terms: Dilution methods test growth across graded concentrations, often in twofold steps.
As for `CC(CN(C)C)CN1c2ccccc2Sc2ccccc21.CC(CN(C)C)CN1c2ccccc2Sc2ccccc21.O=C(O)C(O)C(O)C(=O)O` (centres unmarked) [Alimemazine hemitartrate], the Synergistic lethal concentrations was determined as 50 µM.

Regarding `CN(C)CCOc1ccc(/C(=C(/CCCl)c2ccccc2)c2ccccc2)cc1.O=C(O)CC(O)(CC(=O)O)C(=O)O` [Toremifene (citrate)], the Synergistic lethal concentrations worked out at 1.5625 µM.

With `CCCCCCCC(=O)N[C@H](CN1CCCC1)[C@H](O)c1ccc2c(c1)OCCO2.CCCCCCCC(=O)N[C@H](CN1CCCC1)[C@H](O)c1ccc2c(c1)OCCO2.O=C(O)C(O)C(O)C(=O)O` [Eliglustat (hemitartrate)], the Synergistic lethal concentrations amounted to 100 µM.

As to `O=C(O)C(O)C(O)C(=O)O.Oc1ccc2c(c1)CC[C@H](c1ccccc1)[C@@H]2c1ccc(OCCN2CCCC2)cc1` [Lasofoxifene (Tartrate)], the Synergistic lethal concentrations is 100 µM.

Consider `CC(C)COc1ccc(CNC(=O)N(Cc2ccc(F)cc2)C2CCN(C)CC2)cc1.CC(C)COc1ccc(CNC(=O)N(Cc2ccc(F)cc2)C2CCN(C)CC2)cc1.O=C(O)C(O)C(O)C(=O)O` [Pimavanserin tartrate], for which the Synergistic lethal concentrations worked out at 12.5 µM.
